Experimental data as given in patent publication US5294603A, “Pharmaceutical compositions containing didemnins” (The Board of Trustees of The University of Illinois, priority 1992, dated 1994).

Key:
[1] = test system: cells of the VIV assay (not named); assay: Cytotoxicity in the VIV assay (Tables VI, 9); conditions: Table VI, dose 0.3 (unit not given)
L1210 cells = assay: Inhibition of L1210 cell growth (Tables II-IV); set-up: IC50: unit not given beside the values; conditions: for % I / Net increase in cells/mL: Table III
[2] = dose 0.1 (no unit in table; ng/ml)
[3] = dose 0.3 (no unit in table; ng/ml)
[4] = dose 1 (no unit in table; ng/ml)
[5] = dose 3 (no unit in table; ng/ml)
[6] = dose 10 (no unit in table; ng/ml)

## -Ketobutyryl-Pro Didemnin A
[1]
  % Cytotoxicity: 87%
L1210 cells; L1210 cells, unit not given
  IC50: 0.4
L1210 cells; [2]
  % I: -8%
  Net increase in cells/mL: 3.9 × 10^5 cells/mL
L1210 cells; [3]
  % I: 31%
  Net increase in cells/mL: 2.5 × 10^5 cells/mL
L1210 cells; [4]
  % I: 94%
  Net increase in cells/mL: 2.3 × 10^4 cells/mL
L1210 cells; [5]
  % I: 100%
  Net increase in cells/mL: 0 cells/mL
L1210 cells; [6]
  % I: 100%
  Net increase in cells/mL: 0 cells/mL
L1210 cells; at 1 ng/ml
  cytotoxicity compared with DDB: comparable to that of DDB
L1210 cells; at 3 ng/ml
  cytotoxicity compared with DDB: retained the full cytotoxicity of DDB
